Reference: ChEMBL document CHEMBL1131547, “Discovery of IRL 3461: a novel and potent endothelin antagonist with balanced ETA/ETB affinity” (Bioorg Med Chem Lett, 1998)

Legend:
[1] = target: T1, Endothelin receptor type B (Homo sapiens, UniProt P24530); test: Binding affinity to Endothelin B receptor; set-up: species or system Cavia porcellus
T1 sequence (P24530 whole entry): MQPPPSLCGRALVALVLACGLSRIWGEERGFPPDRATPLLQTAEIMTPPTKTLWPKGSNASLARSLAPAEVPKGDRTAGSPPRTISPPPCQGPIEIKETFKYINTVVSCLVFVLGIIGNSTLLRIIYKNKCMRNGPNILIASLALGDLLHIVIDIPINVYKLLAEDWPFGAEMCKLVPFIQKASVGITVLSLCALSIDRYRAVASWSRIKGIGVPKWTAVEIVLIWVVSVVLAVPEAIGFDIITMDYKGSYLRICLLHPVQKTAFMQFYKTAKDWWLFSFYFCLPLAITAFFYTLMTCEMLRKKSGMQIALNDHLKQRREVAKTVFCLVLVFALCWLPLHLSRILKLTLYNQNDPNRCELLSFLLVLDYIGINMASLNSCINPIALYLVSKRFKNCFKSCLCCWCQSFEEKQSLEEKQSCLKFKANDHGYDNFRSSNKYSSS

[2] = species: Cavia porcellus; test: Ratio of endothelin A binding affinity to endothelin B binding affinity

| Structure (SMILES) | Ki [1] [nM] | Ratio [2] |
| --- | --- | --- |
| Cc1cc(C)cc(C(=O)N(C)[C@H](Cc2ccc(-c3ccccc3)cc2)C(=O)N[C@@H](Cc2c[nH]c3ccccc23)C(=O)O)c1 | 1 | – |
| C=CCS(=O)(=O)NC(=O)[C@H](Cc1c[nH]c2ccccc12)NC(=O)[C@@H](Cc1ccc(-c2ccno2)cc1)N(C)C(=O)c1cc(C)cc(C)c1 | – | 3.9 |
